A word on the IC50: it is the concentration that inhibits the measured activity by half. A lower IC50 goes with higher potency. As a reminder, the EC50 is the concentration needed to bring the measured effect to its halfway point.

Chains of the proteins cited; added tags and fusions are not shown. Lines headed by an entry give the natural chain unless they say otherwise; changes in a name come on top.
UniProt P14324: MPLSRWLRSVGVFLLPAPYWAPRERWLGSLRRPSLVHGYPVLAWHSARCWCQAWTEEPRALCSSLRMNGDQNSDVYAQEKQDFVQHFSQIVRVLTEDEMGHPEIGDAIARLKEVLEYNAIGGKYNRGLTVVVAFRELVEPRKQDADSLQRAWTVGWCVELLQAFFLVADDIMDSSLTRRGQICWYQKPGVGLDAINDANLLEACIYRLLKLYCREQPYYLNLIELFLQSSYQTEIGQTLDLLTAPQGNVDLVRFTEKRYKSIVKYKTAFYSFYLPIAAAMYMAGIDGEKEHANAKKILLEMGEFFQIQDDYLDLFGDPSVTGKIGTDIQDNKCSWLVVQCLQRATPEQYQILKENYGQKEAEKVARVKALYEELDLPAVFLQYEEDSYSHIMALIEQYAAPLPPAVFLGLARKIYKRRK

Drawing on US11279719B2, “Substituted bicyclic pyrimidine-based compounds and compositions and uses thereof” (priority 2017, dated 2022), this text covers IC50 and EC50 for 1 molecule.

Assay [1] has as its target hFPPS (Homo sapiens (Human), UniProt P14324). The assay can be described thus: biochemical.
The test system of assay [2] is RPMI-8226. The assay can be described thus: MM cell viability assay (MTS proliferation). It is filed as cell-based. Particulars: Homo sapiens, 72 hours, average of n ≥ 8 determinations, read-out: MM cells EC50, RPMI-8226.

Where only a bound is given, the exact number is not on record here.

In the case of `O=C(Nc1cccc(-c2cc3c(NC(P(=O)(O)O)P(=O)(O)O)ncnc3s2)c1)c1ccccc1` [Compound C-11, reference compound], the IC50 in assay [1] is more than 10 µM. For the same molecule, in assay [2], the EC50 was more than 10 µM.
